Test results: patent US20070059684A1 (UNIVERSITY OF MEDICINE AND DENTISTRY OF NEW JERSEY, published 2007)

Test system: translation (LUC0 reporter mRNA)
Conditions: yeast extract, lower drug doses

COc1ccc(C[C@H]2NC[C@H](O)[C@H]2OC(C)=O)cc1 [anisomycin]
luciferase production from the LUC0 reporter mRNA: initially stimulate luciferase production
